Here are results for one substance from PMC9321663, “The DevTox Germ Layer Reporter Platform: An Assay Adaptation of the Human Pluripotent Stem Cell Test” (Toxics, 2022).

For data set [1] the following is noted: cited from earlier work.
For the next data set, the system named is RUES2-GLR cells. Briefly: DevTox GLR-Endo assay: decrease in total cell count, cytotoxicity (AEID 3098, CellCount_dn). To be noted: Table S2, 48 h exposure.

For D-Camphor, the “Development Toxicant Classification” value in data set [1] (Table S2) is reported as “Negative”. The Classification result in data set [1] (developmental toxicant classification (Teratogen / Non-Teratogen) of reference and training chemicals, ref DOI per chemical: 10.1093/toxsci/kft239, 10.1093/toxsci/kfaa014, 10.1177/026119290203000204, 10.1038/s41598-020-59542-x) is recorded as “Non-Teratogen”. The “DT Class.” value in data set [1] (developmental toxicant classification, chemicals common with quickPredict) is given as “Neg”. Besides, the “Cell Count ACC” value in the data set with RUES2-GLR cells was above 200 µM.
